Measurements taken from publication PMC11350787, “Antimicrobial Properties and Cytotoxicity of LL-37-Derived Synthetic Peptides to Treat Orthopedic Infections” (Antibiotics, 2024).
Counter-ions that a name gives are not always drawn.

Test system: red blood cells (RBC)
Assay: Hemolytic activity assessment
Format: cell-based
Details: 2.3-300 µg/mL tested; cut off ≤1%; human RBC, 1 h 37 °C
Description: The pellet containing erythrocytes was washed 3 times in PBS centrifuging at 700× g for 8 min at RT. Finally, 40 µL of pellet containing red blood cells (RBC) was diluted in 8 mL of PBS, obtaining a 0.5% v/v RBC suspension.
The 96-well V plate was incubated at 37 °C for 1 h, then centrifuged at 1000× g for 10 min, and the supernatant (60 µL) was transferred to a 96-well flat bottom microplate for the absorption analysis on a microplate reader at 414 nm. The positive control (PC, 100% hemolysis) consisted of 0.1% Triton-X100 in PBS (pH 7.4), while PBS alone served as the negative control (NC, 0% hemolysis). Each hemolysis activity assessment test was carried out in two replicates and repeated three times.
NCs and PCs were averaged, then results were normalized to the average of PC and NC according to the following formula: % Hemolysis = (Abs treated − Abs NC/Abs PC − Abs NC) × 100. The hemolytic activity was also tested on TFA to exclude any toxicity caused by the buffer.

## O=C(O)C(F)(F)F [Na-TFA, Trifluoroacetic acid, reference compound]
  Hemolytic activity (in words): No hemolytic activity
